Screening data from PubChem BioAssay.
Most compounds without a hit are left out; they make up all but 2.8% or so of the library.
miR-122 sensor – miR-122 Renilla sensor signal increase in Huh7, primary screen, miR-122 inhibitor project, cell-based, single point, plate reader | 340,000 tested, 0.3% active | activation (reporter increase), % at 12.5 µM | Huh7 miR-122 Renilla luciferase sensor, 48 h; neutral wells = 0, positive control = 100 | AID 602342, 2012;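 active means mean replicate activation score at least 90 and every replicate individually at or above 90; inconclusive means only one of the two criteria met; inactive means neither criterion met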;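 further: higher luciferase means less miR-122 activity so hits act as miR-122 inhibitors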
Yeast UUG start – modulators of yeast start codon fidelity, primary screen, whole organism, S. cerevisiae, single point, plate reader | AID 602363, 2012 | S. cerevisiae UUG-firefly luciferase reporter, luminescence/redox ratio | activity score, % at 18.7 µM | hit rate 0.13% among 350,000;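 active = replicate mean at a twofold rise or more, about +100% in these data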;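 also: firefly luciferase made from a UUG start codon reports start codon fidelity; reporter light over untreated wells divided by growth signal over untreated wells; some hits fall short of that in this replicate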
Wnt bcat act – Wnt/beta-catenin pathway activators, primary screen, cell-based, plate reader, single point. Wnt/beta-catenin reporter cell assay, activator. activation, % at 9.35 µM. 300,000 tested, 1.2% active. AID 743398, 2014; in the data active means activation above about 30%, passing the limit was not always enough; inconclusive means no clear call, values can overlap the other calls;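 further: 0% = neutral control wells and 100% = positive control wells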
MITF TRPM1 HTS – activators of MITF-driven TRPM1 promoter reporter, primary screen, cell-based, SK-MEL-5, luciferase, single point; activation, % at 12.5 µM; 300,000 tested, 0.75% active; SK-MEL-5 TRPM1-promoter luciferase, 24 h; % of positive control, neutral wells = 0;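 active means mean activation of at least 80% with every replicate also reaching 80%; inconclusive means mean reaches 80% but some replicate falls short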;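 further: 0% = neutral control wells and 100% = parthenolide positive control wells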
esBAF inh – Bmi1 luciferase reporter increase in mESCs, primary screen, esBAF inhibitor project, mouse ES cells, Bmi1 luciferase knock-in, single point | 24 h; 100% = twice the neutral-well signal | reporter increase, % at 12.5 µM | 350,000 tested, 2% active | AID 602393, 2012; in the data active means activation above about 40%; inconclusive means no clear call, values can overlap the other calls;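 further: 0% = median of the plate's neutral control wells and 100% = double that signal; a rise in the Bmi1 reporter signal indicates esBAF inhibition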
PglD DTNB – C. jejuni PglD acetyltransferase inhibitors, primary screen, biochemical, DTNB colorimetric, single point | UDP-N-acetylbacillosamine N-acetyltransferase PglD (Campylobacter jejuni) | 360,000 tested, 0.098% active | inhibition, % at 12.5 µM | purified PglD enzyme, DTNB colorimetric CoA detection; in the data active means inhibition above about 16%, passing the limit was not always enough; inconclusive means no clear call, values can overlap the other calls
The depositor's hits bear a star; [ ] = dose if it differs, or a comment.

What do the screens show for `Cc1ccc(OCc2cc(C(=O)NCC(C)(C)N3CCOCC3)no2)cc1C`?
Yeast UUG start: 6; Wnt bcat act: 47*; MITF TRPM1 HTS: 121*; PglD DTNB: -2

How did Cc1noc(C)c1S(=O)(=O)N(C)C[C@@H]1OCCCC[C@H](C)Oc2ccc(NS(=O)(=O)c3cccs3)cc2C(=O)N([C@@H](C)CO)C[C@H]1C do in these assays?
miR-122 sensor: 12[16.7 µM]; Yeast UUG start: 11; esBAF inh: 3; PglD DTNB: 5

Results for O=C(C[C@H]1CC[C@@H]2[C@H](COC[C@@H](O)CN2Cc2ccccc2)O1)NCc1ccccc1Cl ?
miR-122 sensor: 1[16.7 µM]; Yeast UUG start: 17; esBAF inh: -2; PglD DTNB: 2

How did CCOC(=O)c1cnc(-n2nc(C)cc2C)nc1N(C)C do in these assays?
miR-122 sensor: -5; Yeast UUG start: -38; Wnt bcat act: 29; MITF TRPM1 HTS: 45; esBAF inh: 44*; PglD DTNB: 4

Results for CCOC(=O)c1cnc(-n2nc(C)cc2C)nc1NC1CCCC1 ?
miR-122 sensor: -4; Yeast UUG start: -44; Wnt bcat act: 0; PglD DTNB: -1

What do the screens show for `C[C@@H]1CN([C@H](C)CO)C(=O)c2cccc(NC(=O)C3CCCCC3)c2O[C@@H]1CN(C)C`?
miR-122 sensor: -2[16.7 µM]; Yeast UUG start: 5; esBAF inh: 3; PglD DTNB: 3

What do the screens show for `Nc1nonc1-n1nnc(C(=O)N/N=C/c2ccc(OCc3ccccc3F)cc2)c1CN1CCCCC1`?
miR-122 sensor: 4; Yeast UUG start: -6; Wnt bcat act: 5; MITF TRPM1 HTS: 84*; esBAF inh: 9; PglD DTNB: 2

What do the screens show for `Cc1cccc(COc2ccc(/C=N/NC(=O)c3nnn(-c4nonc4N)c3CN3CCCCC3)cc2)c1`?
Yeast UUG start: 5; Wnt bcat act: 4; MITF TRPM1 HTS: 19; esBAF inh: inconclusive; PglD DTNB: -4

Results for Nc1nonc1-n1nnc(C(=O)N/N=C/c2ccc(OCc3cccc(Cl)c3)cc2)c1CN1CCCCC1 ?
Wnt bcat act: 20; MITF TRPM1 HTS: 106*

What do the screens show for `COc1cc(/C=N/NC(=O)c2nnn(-c3nonc3N)c2C)ccc1OCc1ccc(Cl)cc1`?
miR-122 sensor: -1; Yeast UUG start: -3; Wnt bcat act: 0; esBAF inh: 56*; PglD DTNB: -1

Results for CC(=O)Nc1ccc(NC(=O)COC(=O)C2(c3ccc(Cl)cc3)CCCC2)cc1 ?
Wnt bcat act: -6; MITF TRPM1 HTS: 0

How did CCc1cccc(CC)c1NC(=O)COC(=O)C1(c2ccc(Cl)cc2)CCCC1 do in these assays?
miR-122 sensor: 113*; Yeast UUG start: -1; MITF TRPM1 HTS: -5; esBAF inh: -13; PglD DTNB: -7

Reprinted from the part before: 2 compounds, followed by the next part.
Results for CC(=O)Nc1ccc(NC(=O)COC(=O)C2(c3ccc(Cl)cc3)CCCC2)cc1 ?
Wnt bcat act: -6; MITF TRPM1 HTS: 0

How did CCc1cccc(CC)c1NC(=O)COC(=O)C1(c2ccc(Cl)cc2)CCCC1 do in these assays?
miR-122 sensor: 113*; Yeast UUG start: -1; MITF TRPM1 HTS: -5; esBAF inh: -13; PglD DTNB: -7

How did COc1ccc(NC(=O)N(C)C[C@@H]2Oc3ccc(NS(=O)(=O)c4cccs4)cc3CC(=O)N([C@@H](C)CO)C[C@H]2C)cc1 do in these assays?
miR-122 sensor: -4[16.7 µM]; Yeast UUG start: -3; esBAF inh: 3; PglD DTNB: 4

How did Cc1ccc(C(=O)NCCSc2ccccc2)cc1S(=O)(=O)Nc1ccccc1 do in these assays?
miR-122 sensor: 94*; Yeast UUG start: 2; MITF TRPM1 HTS: -1; esBAF inh: -4; PglD DTNB: 4

Results for Cc1ccccc1C(=O)NCCSc1ccccc1 ?
miR-122 sensor: 6; Yeast UUG start: -17; MITF TRPM1 HTS: 96*; esBAF inh: 55*; PglD DTNB: 8

How did Cc1noc(C)c1NC(=O)Nc1ccc2c(c1)C(=O)N([C@H](C)CO)C[C@@H](C)[C@@H](CN(C)S(=O)(=O)c1ccccc1)O2 do in these assays?
miR-122 sensor: -1[16.7 µM]; Yeast UUG start: 16; esBAF inh: 1

What do the screens show for `COc1cc(C2C3=C(COC3=O)OC(C)(C)Oc3cc4c(cc32)OCO4)cc(OC)c1OC` (stereo not drawn)?
miR-122 sensor: 114*; Wnt bcat act: -23; MITF TRPM1 HTS: -54
